Source: BindingDB's records for patent US9862688 (Dana-Farber Cancer Institute, 2018)

Chains of the proteins cited; added tags and fusions are not shown. Lines headed by an entry give the natural chain unless they say otherwise; changes in a name come on top.
UniProt O60674: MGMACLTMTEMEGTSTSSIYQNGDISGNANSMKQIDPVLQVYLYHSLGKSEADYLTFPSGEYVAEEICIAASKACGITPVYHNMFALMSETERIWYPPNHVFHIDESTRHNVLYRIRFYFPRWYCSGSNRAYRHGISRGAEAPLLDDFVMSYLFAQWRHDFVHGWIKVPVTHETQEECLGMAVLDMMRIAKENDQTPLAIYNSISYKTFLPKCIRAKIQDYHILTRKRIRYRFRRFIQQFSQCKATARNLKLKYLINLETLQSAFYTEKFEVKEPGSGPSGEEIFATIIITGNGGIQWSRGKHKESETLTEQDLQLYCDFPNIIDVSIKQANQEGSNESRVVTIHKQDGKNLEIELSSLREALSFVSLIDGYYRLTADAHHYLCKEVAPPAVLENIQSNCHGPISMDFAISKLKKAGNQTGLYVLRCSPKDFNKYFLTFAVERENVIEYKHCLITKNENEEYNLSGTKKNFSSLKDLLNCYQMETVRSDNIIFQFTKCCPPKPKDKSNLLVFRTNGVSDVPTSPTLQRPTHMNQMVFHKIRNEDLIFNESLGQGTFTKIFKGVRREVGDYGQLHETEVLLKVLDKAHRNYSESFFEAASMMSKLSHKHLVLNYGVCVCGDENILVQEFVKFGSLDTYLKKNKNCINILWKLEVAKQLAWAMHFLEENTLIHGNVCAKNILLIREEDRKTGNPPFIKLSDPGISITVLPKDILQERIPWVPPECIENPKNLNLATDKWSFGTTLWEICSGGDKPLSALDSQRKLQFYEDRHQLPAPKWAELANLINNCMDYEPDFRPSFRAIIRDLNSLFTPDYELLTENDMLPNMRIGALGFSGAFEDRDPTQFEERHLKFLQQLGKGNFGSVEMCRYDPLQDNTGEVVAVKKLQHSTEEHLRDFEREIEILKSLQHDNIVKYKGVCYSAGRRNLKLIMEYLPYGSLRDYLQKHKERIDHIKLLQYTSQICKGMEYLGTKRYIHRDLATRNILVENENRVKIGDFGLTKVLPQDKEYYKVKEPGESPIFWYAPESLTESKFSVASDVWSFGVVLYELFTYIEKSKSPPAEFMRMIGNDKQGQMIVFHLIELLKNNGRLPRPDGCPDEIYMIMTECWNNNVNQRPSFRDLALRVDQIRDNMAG
UniProt P00519, whole entry: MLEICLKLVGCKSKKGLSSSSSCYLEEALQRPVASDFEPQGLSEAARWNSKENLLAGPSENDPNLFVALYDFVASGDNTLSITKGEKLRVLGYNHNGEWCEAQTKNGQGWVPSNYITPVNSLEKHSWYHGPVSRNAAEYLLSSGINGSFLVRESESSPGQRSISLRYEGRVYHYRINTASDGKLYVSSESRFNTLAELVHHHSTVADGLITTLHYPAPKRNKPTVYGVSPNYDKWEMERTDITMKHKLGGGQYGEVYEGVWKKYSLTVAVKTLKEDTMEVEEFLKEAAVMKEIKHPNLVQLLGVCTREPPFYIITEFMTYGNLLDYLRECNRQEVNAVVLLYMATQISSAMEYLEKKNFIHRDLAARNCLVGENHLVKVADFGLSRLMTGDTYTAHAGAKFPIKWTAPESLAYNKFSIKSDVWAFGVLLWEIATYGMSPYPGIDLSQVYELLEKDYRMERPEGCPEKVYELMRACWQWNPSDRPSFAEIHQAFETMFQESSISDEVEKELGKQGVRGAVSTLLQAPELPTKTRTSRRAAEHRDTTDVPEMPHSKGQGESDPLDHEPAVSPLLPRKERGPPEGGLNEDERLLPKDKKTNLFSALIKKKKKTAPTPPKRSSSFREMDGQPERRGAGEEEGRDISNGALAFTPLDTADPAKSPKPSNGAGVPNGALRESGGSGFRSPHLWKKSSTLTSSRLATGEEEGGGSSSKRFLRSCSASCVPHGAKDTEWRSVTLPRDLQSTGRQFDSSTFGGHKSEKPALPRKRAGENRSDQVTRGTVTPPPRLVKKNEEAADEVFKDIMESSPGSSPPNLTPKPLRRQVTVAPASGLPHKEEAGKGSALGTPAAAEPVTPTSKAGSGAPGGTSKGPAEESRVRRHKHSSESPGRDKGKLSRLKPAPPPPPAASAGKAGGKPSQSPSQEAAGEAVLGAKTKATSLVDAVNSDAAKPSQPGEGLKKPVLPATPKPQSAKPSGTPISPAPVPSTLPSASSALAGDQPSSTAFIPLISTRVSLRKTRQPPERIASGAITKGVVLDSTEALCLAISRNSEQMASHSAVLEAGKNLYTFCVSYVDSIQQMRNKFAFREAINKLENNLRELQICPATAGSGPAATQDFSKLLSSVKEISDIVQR

How the values were obtained:
Test in all cases: In Vitro Activity Assay
[1] = biological target: T1, Tyrosine-protein kinase JAK3 (Homo sapiens, UniProt P52333)
T1 sequence (P52333 whole entry): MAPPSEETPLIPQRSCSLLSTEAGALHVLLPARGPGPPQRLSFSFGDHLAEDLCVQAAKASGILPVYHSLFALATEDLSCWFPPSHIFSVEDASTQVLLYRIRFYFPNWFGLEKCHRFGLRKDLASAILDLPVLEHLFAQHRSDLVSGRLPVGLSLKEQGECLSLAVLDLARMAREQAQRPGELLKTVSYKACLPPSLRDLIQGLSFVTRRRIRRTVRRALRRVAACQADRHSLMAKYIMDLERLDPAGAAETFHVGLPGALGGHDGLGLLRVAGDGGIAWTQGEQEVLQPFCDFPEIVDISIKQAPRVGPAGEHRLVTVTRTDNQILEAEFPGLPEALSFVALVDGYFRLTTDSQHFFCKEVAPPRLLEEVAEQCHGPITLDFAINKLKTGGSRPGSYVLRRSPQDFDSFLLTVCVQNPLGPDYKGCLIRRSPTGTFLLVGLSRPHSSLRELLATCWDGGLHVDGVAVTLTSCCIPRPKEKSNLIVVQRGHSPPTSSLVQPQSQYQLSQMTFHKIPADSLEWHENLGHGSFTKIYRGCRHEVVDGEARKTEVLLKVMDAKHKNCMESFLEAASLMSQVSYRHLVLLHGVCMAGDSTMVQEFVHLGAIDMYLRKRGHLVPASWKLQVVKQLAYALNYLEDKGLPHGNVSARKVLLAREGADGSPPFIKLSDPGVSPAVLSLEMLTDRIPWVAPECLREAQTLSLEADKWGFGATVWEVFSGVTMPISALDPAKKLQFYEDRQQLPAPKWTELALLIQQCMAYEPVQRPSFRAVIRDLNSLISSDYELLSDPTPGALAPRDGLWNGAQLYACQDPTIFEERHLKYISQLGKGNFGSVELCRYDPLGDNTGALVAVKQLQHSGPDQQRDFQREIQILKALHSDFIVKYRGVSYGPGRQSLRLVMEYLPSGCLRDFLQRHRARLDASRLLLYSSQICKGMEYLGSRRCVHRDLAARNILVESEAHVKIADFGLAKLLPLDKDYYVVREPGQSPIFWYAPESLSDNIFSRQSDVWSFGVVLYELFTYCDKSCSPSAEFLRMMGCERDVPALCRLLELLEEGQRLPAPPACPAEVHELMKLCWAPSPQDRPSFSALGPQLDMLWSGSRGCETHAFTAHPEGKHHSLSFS
Description: (§1) The in vitro activity of the compounds described herein in inhibiting JAK3 and other kinases were obtained using an INVITROGEN Select Screening assay as known in the art.

[2] = biological target: Tyrosine-protein kinase JAK2 (Homo sapiens, UniProt O60674)
Description: as §1

[3] = biological target: Tyrosine-protein kinase ABL1 (Homo sapiens, UniProt P00519)
Description: as §1

| SMILES | IC50 [1] [µM] | IC50 [2] [µM] | IC50 [3] [µM] |
| --- | --- | --- | --- |
| C=CC(=O)Nc1cccc(CNc2nc(Nc3ccc(N4CCN(CCNC(=O)CC5[C@H]6C[C@@H]7C[C@@H](C[C@H]5C7)C6)CC4)cc3OC)ncc2Cl)c1 (some centres undefined) [US9862688, Compound 1] | 0.482 |  |  |
| C=CC(=O)Nc1cccc(CNc2nc(Nc3ccc(N4CCN(CCCNC(=O)CC5[C@H]6C[C@@H]7C[C@@H](C[C@H]5C7)C6)CC4)cc3OC)ncc2Cl)c1 (some centres undefined) [US9862688, Compound 2] |  | 3.11 |  |
| C=CC(=O)Nc1cccc(CNc2nc(Nc3cnn(CCN4CCN(C(=O)CC5[C@H]6C[C@@H]7C[C@@H](C[C@H]5C7)C6)CC4)c3)ncc2Cl)c1 (some centres undefined) [US9862688, Compound 5] |  | 1.37 | 1.97 |
